Measurements: US10149839B2, “Chemical compounds” (AstraZeneca AB, priority 2016, dated 2018)

Chains of the proteins cited; added tags and fusions are not shown. Residues count along the entry.
UniProt P03372, 307-554: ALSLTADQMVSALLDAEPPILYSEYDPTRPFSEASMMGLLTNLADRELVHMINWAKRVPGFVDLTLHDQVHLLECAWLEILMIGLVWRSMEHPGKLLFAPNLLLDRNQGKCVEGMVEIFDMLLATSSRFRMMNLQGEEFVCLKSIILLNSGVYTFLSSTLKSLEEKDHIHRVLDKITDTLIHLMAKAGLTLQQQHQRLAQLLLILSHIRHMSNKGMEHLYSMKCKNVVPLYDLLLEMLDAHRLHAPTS

Molecular target: recombinant human Estrogen Receptor alpha ligand binding domain (ER alpha-LBD (GST)) (Homo sapiens (Human), UniProt P03372)
Test: ERα binding assay (LanthaScreen TR-FRET competition)
Conditions: read-out: ER binding IC50 value, 50% reduction in tracer binding to ER alpha-LBD

Row | SMILES | IC50 [nM]
1 | CC(C)CN1[C@H](c2ccc(OCCNCCCF)cc2)c2[nH]c3ccccc3c2C[C@H]1C [Example 2, 3-fluoro-N-(2-(4-((1R,3R)-2-isobutyl-3-methyl-2,3,4,9-tetrahydro-1H-pyrido[3,4-b]indol-1-yl)phenoxy)ethyl)propan-1-amine] | 4.3
2 | C[C@@H]1Cc2c([nH]c3ccccc23)[C@@H](c2cnc(OCCNCCCF)cn2)N1CC(F)(F)CO [Example 69, 2,2-difluoro-3-((1S,3R)-1-(5-(2-((3-fluoropropyl)amino)ethoxy)pyrazin-2-yl)-3-methyl-1,3,4,9-tetrahydro-2H-pyrido[3,4-b]indol-2-yl)propan-1-ol] | 0.97
3 | C[C@@H]1Cc2c([nH]c3ccccc23)[C@@H](c2c(F)cc(NCCNCCCF)cc2F)N1CC1(F)COC1 [Example 44, N1-(3,5-difluoro-4-((1R,3R)-2-((3-fluorooxetan-3-yl)methyl)-3-methyl-2,3,4,9-tetrahydro-1H-pyrido[3,4-b]indol-1-yl)phenyl)-N2-(3-fluoropropyl)ethane-1,2-diamine] | 2.5
4 | COCC(F)(F)CN1[C@H](c2c(F)cc(OCCNCCCF)cc2F)c2[nH]c3ccccc3c2C[C@H]1C [Example 14, N-(2-(4-((1R,3R)-2-(2,2-difluoro-3-methoxypropyl)-3-methyl-2,3,4,9-tetrahydro-1H-pyrido[3,4-b]indol-1-yl)-3,5-difluorophenoxy)ethyl)-3-fluoropropan-1-amine] | 2.5
5 | C[C@H](COc1ccc([C@@H]2c3[nH]c4ccccc4c3C[C@@H](C)N2CC2(F)COC2)cc1)NCCCF [Example 28, 3-fluoro-N-((R)-1-(4-((1R,3R)-2-((3-fluorooxetan-3-yl)methyl)-3-methyl-2,3,4,9-tetrahydro-1H-pyrido[3,4-b]indol-1-yl)phenoxy)propan-2-yl)propan-1-amine] | 6.2
6 | C[C@@H]1Cc2c([nH]c3ccccc23)[C@@H](c2c(F)cc(OCCNCCCF)cc2F)N1CC(C)(F)CO (single isomer, unassigned) [Example 17] | 1.4
7 | C[C@@H]1Cc2c([nH]c3ccccc23)[C@@H](c2ccc(OCCNCCCF)cc2)N1CC(C)(F)F [Example 57, N-(2-(4-((1R,3R)-2-(2,2-difluoropropyl)-3-methyl-2,3,4,9-tetrahydro-1H-pyrido[3,4-b]indol-1-yl)phenoxy)ethyl)-3-fluoropropan-1-amine] | 3.3
8 | COc1cc(OCCNCCCF)ccc1[C@@H]1c2[nH]c3ccccc3c2C[C@@H](C)N1CC(C)(F)F [Example 74, N-(2-(4-((1R,3R)-2-(2,2-difluoropropyl)-3-methyl-2,3,4,9-tetrahydro-1H-pyrido[3,4-b]indol-1-yl)-3-methoxyphenoxy)ethyl)-3-fluoropropan-1-amine] | 2
9 | C[C@@H]1Cc2c([nH]c3ccccc23)[C@@H](c2ccc(OCCNCCCF)nc2)N1CC1(F)COC1 [Example 34, 3-fluoro-N-(2-((5-((1R,3R)-2-((3-fluorooxetan-3-yl)methyl)-3-methyl-2,3,4,9-tetrahydro-1H-pyrido[3,4-b]indol-1-yl)pyridin-2-yl)oxy)ethyl)propan-1-amine] | 3.2
10 | COc1cc(OCCNCCCF)ncc1[C@@H]1c2[nH]c3ccccc3c2C[C@@H](C)N1CC(C)(F)F [Example 42, N-(2-((5-((1R,3R)-2-(2,2-Difluoropropyl)-3-methyl-2,3,4,9-tetrahydro-1H-pyrido[3,4-b]indol-1-yl)-4-methoxypyridin-2-yl)oxy)ethyl)-3-fluoropropan-1-amine] | 1.2
11 | C[C@@H]1Cc2c([nH]c3ccccc23)[C@@H](c2ccc(OCCNCCCF)cc2)N1C[C@H](F)CF (single isomer, unassigned) [Example 26] | 1.2
12 | C[C@@H]1Cc2c([nH]c3ccccc23)[C@@H](c2c(F)cc(N(C)CCNCCCF)cc2F)N1CC(F)F [Example 49, N1-(4-((1R,3R)-2-(2,2-difluoroethyl)-3-methyl-2,3,4,9-tetrahydro-1H-pyrido[3,4-b]indol-1-yl)-3,5-difluorophenyl)-N2-(3-fluoropropyl)-N1-methylethane-1,2-diamine] | 2.1
13 | CC(CNCCCF)Oc1cc(F)c([C@@H]2c3[nH]c4ccccc4c3C[C@@H](C)N2CC(C)(C)F)c(F)c1 (stereo partly drawn) [Example 19, 2-(3,5-difluoro-4-((1R,3R)-2-(2-fluoro-2-methylpropyl)-3-methyl-2,3,4,9-tetrahydro-1H-pyrido[3,4-b]indol-1-yl)phenoxy)-N-(3-fluoropropyl)propan-1-amine] | 2.5
14 | COc1cc(NCCNCCCF)ncc1[C@@H]1c2[nH]c3ccccc3c2C[C@@H](C)N1CC(C)(F)F [Example 68, N1-(5-((1R,3R)-2-(2,2-difluoropropyl)-3-methyl-2,3,4,9-tetrahydro-1H-pyrido[3,4-b]indol-1-yl)-4-methoxypyridin-2-yl)-N2-(3-fluoropropyl)ethane-1,2-diamine] | 2.6
15 | COc1cc(NCCNCCCF)ccc1[C@@H]1c2[nH]c3ccccc3c2C[C@@H](C)N1CC(F)(F)CO [Example 59, 2,2-difluoro-3-((1R,3R)-1-(4-((2-((3-fluoropropyl)amino)ethyl)amino)-2-methoxyphenyl)-3-methyl-1,3,4,9-tetrahydro-2H-pyrido[3,4-b]indol-2-yl)propan-1-ol] | 9.9
16 | COc1cc(NCCNCCCF)ncc1[C@@H]1c2[nH]c3ccccc3c2C[C@@H](C)N1CC1(F)COC1 [Example 66, N1-(5-((1R,3R)-2-((3-fluorooxetan-3-yl)methyl)-3-methyl-2,3,4,9-tetrahydro-1H-pyrido[3,4-b]indol-1-yl)-4-methoxypyridin-2-yl)-N2-(3-fluoropropyl)ethane-1,2-diamine] | 5.3

Further molecules by falling IC50, results first:

Row | IC50 [nM] | SMILES
17 | 9 | C[C@@H]1Cc2c([nH]c3ccccc23)[C@@H](c2ccc(OCCNCCCF)cc2C#N)N1CC1(F)CC1 [Example 29, 2-((1R,3R)-2-((1-fluorocyclopropyl)methyl)-3-methyl-2,3,4,9-tetrahydro-1H-pyrido[3,4-b]indol-1-yl)-5-(2-((3-fluoropropyl)amino)ethoxy)benzonitrile]
18 | 4.7 | COc1cc(OCCNCCCF)ccc1[C@@H]1c2[nH]c3ccccc3c2C[C@@H](C)N1CC1(F)CC1 [Example 11, 3-fluoro-N-(2-(4-((1R,3R)-2-((1-fluorocyclopropyl)methyl)-3-methyl-2,3,4,9-tetrahydro-1H-pyrido[3,4-b]indol-1-yl)-3-methoxyphenoxy)ethyl)propan-1-amine]
19 | 4.5 | COc1nc(OCCNCCCF)ccc1[C@@H]1c2[nH]c3ccccc3c2C[C@@H](C)N1CC(F)F [Example 75, N-(2-((5-((1R,3R)-2-(2,2-difluoroethyl)-3-methyl-2,3,4,9-tetrahydro-1H-pyrido[3,4-b]indol-1-yl)-6-methoxypyridin-2-yl)oxy)ethyl)-3-fluoropropan-1-amine]
20 | 2.4 | COc1cc(OCCNCCCF)ncc1[C@@H]1c2[nH]c3ccccc3c2C[C@@H](C)N1CC1(F)CC1 [Example 37, 3-fluoro-N-(2-((5-((1R,3R)-2-((1-fluorocyclopropyl)methyl)-3-methyl-2,3,4,9-tetrahydro-1H-pyrido[3,4-b]indol-1-yl)-4-methoxypyridin-2-yl)oxy)ethyl)propan-1-amine]
21 | 2.3 | COc1cc(OCCNCCCF)ncc1[C@@H]1c2[nH]c3ccccc3c2C[C@@H](C)N1CC(C)(C)F [Example 36, 3-fluoro-N-(2-((5-((1R,3R)-2-(2-fluoro-2-methylpropyl)-3-methyl-2,3,4,9-tetrahydro-1H-pyrido[3,4-b]indol-1-yl)-4-methoxypyridin-2-yl)oxy)ethyl)propan-1-amine]
22 | 2.2 | C[C@@H]1Cc2c([nH]c3ccccc23)[C@@H](c2ccc(OC[C@H](C)NCCCF)cc2)N1CC1(F)COC1 [Example 27, 3-fluoro-N-((S)-1-(4-((1R,3R)-2-((3-fluorooxetan-3-yl)methyl)-3-methyl-2,3,4,9-tetrahydro-1H-pyrido[3,4-b]indol-1-yl)phenoxy)propan-2-yl)propan-1-amine]
23 | 2.2 | C[C@@H]1Cc2c([nH]c3ccccc23)[C@@H](c2ccc(OCCNCCCF)cc2)N1CC(F)CF (single isomer, unassigned) [Example 25]
24 | 2.2 | C[C@@H]1Cc2c([nH]c3ccccc23)[C@@H](c2c(F)cc(OCC(CO)NCCCF)cc2F)N1CC(C)(C)F (single isomer, unassigned) [Example 52]
25 | 2.1 | COc1cc(OCCNCCCF)ncc1[C@@H]1c2[nH]c3ccccc3c2C[C@@H](C)N1CC1(F)COC1 [Example 7, 3-fluoro-N-(2-((5-((1R,3R)-2-((3-fluorooxetan-3-yl)methyl)-3-methyl-2,3,4,9-tetrahydro-1H-pyrido[3,4-b]indol-1-yl)-4-methoxypyridin-2-yl)oxy)ethyl)propan-1-amine]
26 | 2 | C[C@@H]1Cc2c([nH]c3ccccc23)[C@@H](c2ccc(OCCNCCCF)cc2)N1CC(F)F [Example 56, N-(2-(4-((1R,3R)-2-(2,2-difluoroethyl)-3-methyl-2,3,4,9-tetrahydro-1H-pyrido[3,4-b]indol-1-yl)phenoxy)ethyl)-3-fluoropropan-1-amine]
27 | 1.9 | C[C@@H]1Cc2c([nH]c3ccccc23)[C@@H](c2cnc(OCCNCCCF)cn2)N1CC(C)(C)F [Example 38, 3-fluoro-N-(2-((5-((1S,3R)-2-(2-fluoro-2-methylpropyl)-3-methyl-2,3,4,9-tetrahydro-1H-pyrido[3,4-b]indol-1-yl)pyrazin-2-yl)oxy)ethyl)propan-1-amine]
28 | 1.8 | COc1cc(OCCNCCCF)cnc1[C@@H]1c2[nH]c3ccccc3c2C[C@@H](C)N1CC(C)(C)F [Example 35, 3-fluoro-N-(2-((6-((1S,3R)-2-(2-fluoro-2-methylpropyl)-3-methyl-2,3,4,9-tetrahydro-1H-pyrido[3,4-b]indol-1-yl)-5-methoxypyridin-3-yl)oxy)ethyl)propan-1-amine]
29 | 1.2 | C[C@@H]1Cc2c([nH]c3ccccc23)[C@@H](c2c(F)cc(NCCNCCCF)cc2F)N1CC(F)(F)CO [Example 46, 3-((1R,3R)-1-(2,6-difluoro-4-((2-((3-fluoropropyl)amino)ethyl)amino)phenyl)-3-methyl-1,3,4,9-tetrahydro-2H-pyrido[3,4-b]indol-2-yl)-2,2-difluoropropan-1-ol]
